Measured values taken from US20200331855A1, “CO-CRYSTAL OF TOCOPHEROL AND PROLINE AND PREPARATION METHOD THEREOF” (priority 2017, published 2020).

Key:
[1] = Long-term test stability (25° C./60% relative humidity); format: physicochemical; conditions: Month 3
Method: (§1) The content was determined by HPLC, and the content was calculated by the external standard method.

[2] = Accelerated test stability (40° C./75% relative humidity), D-α-tocopherol vs co-crystal; format: physicochemical; conditions: Month 3
Method: as §1

## Cc1c(C)c2c(c(C)c1O)CC[C@@](C)(CCC[C@H](C)CCC[C@H](C)CCCC(C)C)O2 [D-α-tocopherol]
[1]
  content: 96.9%
[2]
  content: 96.9%
